Assay [1] deals with human CD47 (human) (UniProt Q08722). The assay can be described thus: FACS competition on Jurkat cells against 25 nM labelled SIRPα-Fc.
Assay [2] shares this target. The assay can be described thus: cell-based or functional assay.
Assay [3] shares this target. The assay can be described thus: FACS competition on Jurkat cells: unlabelled SIRPα-Fc varied against 25 nM labelled SIRPα-Fc (sheet: SIRPa-Fc-FITC(25nM); text: biotin-SIRPα-Fc detected with FITC-streptavidin). The table prints no unit, nM is taken from the concentration axis.
The target is the same in assay [4]. The assay can be described thus: FACS binding to Jurkat cells (CD20-CD47+), % positive cells against protein concentration; value from the EC50 (nM) table beside the curves. Background: In flow cytometry, cells or beads pass a laser one at a time.

Amino acid sequences for entries named in this document (tags omitted). A change or cut given only in a name is not applied to a line headed by its entry.
UniProt Q5TFQ8: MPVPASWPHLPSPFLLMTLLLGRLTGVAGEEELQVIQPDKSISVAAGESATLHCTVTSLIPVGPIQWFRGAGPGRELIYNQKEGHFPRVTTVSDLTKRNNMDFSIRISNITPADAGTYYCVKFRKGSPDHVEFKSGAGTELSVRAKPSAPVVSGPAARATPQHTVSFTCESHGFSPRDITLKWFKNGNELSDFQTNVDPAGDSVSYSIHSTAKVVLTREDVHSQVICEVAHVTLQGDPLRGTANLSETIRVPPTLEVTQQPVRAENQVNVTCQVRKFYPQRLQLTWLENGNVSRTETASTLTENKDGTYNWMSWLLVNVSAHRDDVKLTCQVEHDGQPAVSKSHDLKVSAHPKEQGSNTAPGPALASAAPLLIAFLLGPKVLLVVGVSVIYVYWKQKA

In general, IC50 refers to the midpoint of a concentration-inhibition curve. Read a high IC50 as weaker potency in that assay. By EC50 is commonly meant the concentration giving half of the maximal effect. Read a high EC50 as a need for much substance.

With “SIRPα-Fc (from UniProt Q5TFQ8 30-163) (Fc fusion)”, the IC50 (read off the curve) in the assay with human CD47 (human) [1] came to 20 nM. For the same substance, the phagocytosis of HL-60 cells by mouse macrophage cell line Ana-1, EC50 in the assay with human CD47 (human) [2] came to 0.14 µg/mL. This substance had an IC50 with human CD47 (human) [3] of 18.8 nM. Besides, the EC50 in the assay with human CD47 (human) [4] came to 0.03 nM.

The values are drawn from patent US20200095339A1.
